Molecular target: Acetylcholinesterase (Electrophorus electricus, UniProt O42275)
Assay: Inhibitory activity against acetylcholinesterase as a prodrug was demonstarted

Sequences of proteins named here, by UniProt entry; tags and fusion partners are left off. A change or cut given only in a name is not applied to a line headed by its entry.
UniProt O42275: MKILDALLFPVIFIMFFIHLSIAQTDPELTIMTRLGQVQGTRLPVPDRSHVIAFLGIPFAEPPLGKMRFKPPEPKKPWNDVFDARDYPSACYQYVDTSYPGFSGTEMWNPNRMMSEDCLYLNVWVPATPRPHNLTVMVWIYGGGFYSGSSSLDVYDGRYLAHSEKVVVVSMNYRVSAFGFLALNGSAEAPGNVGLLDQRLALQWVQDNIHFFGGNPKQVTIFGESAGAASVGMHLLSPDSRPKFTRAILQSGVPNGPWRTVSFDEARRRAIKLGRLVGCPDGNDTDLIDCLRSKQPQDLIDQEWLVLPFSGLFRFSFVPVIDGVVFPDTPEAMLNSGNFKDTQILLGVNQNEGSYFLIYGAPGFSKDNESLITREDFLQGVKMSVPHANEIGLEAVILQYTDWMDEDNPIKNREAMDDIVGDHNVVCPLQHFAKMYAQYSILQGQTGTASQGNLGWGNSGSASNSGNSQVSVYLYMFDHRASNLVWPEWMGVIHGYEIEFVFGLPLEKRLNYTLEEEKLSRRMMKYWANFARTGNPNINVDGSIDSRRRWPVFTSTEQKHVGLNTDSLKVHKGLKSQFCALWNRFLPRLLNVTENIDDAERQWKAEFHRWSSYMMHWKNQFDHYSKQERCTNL

SMILES: CNC(=O)Oc1ccc2c(c1)[C@]1(C)CCN(C)[C@@H]1N2C [PHYSOSTIGMINE]
- IC50: 1 nM

— ChEMBL document CHEMBL1126394, “Synthesis of 1-(2-Indolyl)pyridinium salts: a prodrug approach to acetylcholinesterase inhibition” (Bioorg Med Chem Lett, 1992)
